# Binding of CDR-mutated scFvs to a peptide of the spike HR2 region

Values reported by Engelhart et al. 2022, doi:10.1038/s41597-022-01779-4 (FLAb copy).

Target: peptide PDVDLGDISGINAS, taken from heptad repeat 2 (HR2) of SARS-CoV-2 spike.

Ab-14 is the parent antibody, in scFv form: VH, then three GGGGS repeats, then VL. The light chain is unchanged in all variants.
VH: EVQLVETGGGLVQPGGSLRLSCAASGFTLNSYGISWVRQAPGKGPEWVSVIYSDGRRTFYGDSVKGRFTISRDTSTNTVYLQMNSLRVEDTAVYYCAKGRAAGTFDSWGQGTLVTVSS
VL: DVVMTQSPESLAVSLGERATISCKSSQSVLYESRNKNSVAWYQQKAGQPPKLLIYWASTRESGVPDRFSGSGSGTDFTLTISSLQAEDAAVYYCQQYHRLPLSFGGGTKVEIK

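The starting antibody came from a phage panning campaign against this peptide. Variants in AAYL49 differ from the parent at up to three CDR positions; double and triple changes were sampled at random. AlphaSeq pools MATa yeast showing the antibodies with MATalpha yeast showing the peptide. After mating in shaken culture at 30 °C for 16 h, diploids were selected and their barcode pairs sequenced. Each replicate has its own calibration line, from reference interactions of the BCL2 family. Mating was done three times.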

Changes read parent residue, position, new residue, counted from the first residue of the VH shown.
Scale: log10 of Kd in nM, estimated from mating counts; low values are strong binders.
A mean of the replicates is given; it leaves out those without a signal.
"n.d." marks a missing value. The strain was present, yet no cells mated with the target were sequenced in that replicate, which points to weak or no binding.
In this assay the parent's reference entry averaged 0.65; its copy inside this library read 4.11 (one replicate of three).
Background: pairings of library AAYL49 with three empty control strains gave a value in 15% of cases (median 4.06, 5th percentile 2.83). Values in that range, when seen in few replicates, are hard to tell from nonspecific mating. The control count says in how many pairings with the empty strains this scFv gave a signal, with their mean in brackets.

| # | changes | replicates, log10 nM | mean log10 Kd (nM) | signal with controls |
|---|---|---|---|---|
| 1 | S31E+T58N+A102E | n.d. n.d. n.d. | n.d. | 0 of 9 |
| 2 | S53Q+G61K | n.d. n.d. n.d. | n.d. | 0 of 9 |
| 3 | G33K+I34R+T58R | n.d. n.d. 4.94 | 4.94 | 1 of 9 (4.61) |
| 4 | Y60K+G103L | n.d. n.d. n.d. | n.d. | 2 of 9 (4.18) |
| 5 | Y32H+G33Y+I34P | n.d. n.d. n.d. | n.d. | 1 of 9 (3.28) |
| 6 | F27T+G33Q+S35F | n.d. n.d. n.d. | n.d. | 2 of 9 (4.10) |
| 7 | F27K+S31L | 2.69 2.42 2.64 | 2.58 | 6 of 9 (4.12) |
| 8 | D54E+G61E+K65G | n.d. n.d. n.d. | n.d. | 2 of 9 (4.15) |
| 9 | G103T+T104M | n.d. n.d. n.d. | n.d. | 2 of 9 (3.35) |
| 10 | Y52N | n.d. n.d. n.d. | n.d. | 3 of 9 (3.25) |
| 11 | Y60L+G99N+A101P | n.d. n.d. n.d. | n.d. | 0 of 9 |
| 12 | F27L+R100P+T104L | 6.40 n.d. n.d. | 6.40 | 5 of 9 (4.62) |
| 13 | Y32F+G61E+K65F | 3.10 3.06 2.88 | 3.02 | 5 of 9 (4.76) |
| 14 | I51N+T58R+G103N | n.d. n.d. n.d. | n.d. | 0 of 9 |
| 15 | D62A+R100V | 1.41 1.21 1.29 | 1.30 | 0 of 9 |
| 16 | G33W+G99A+G103E | n.d. n.d. n.d. | n.d. | 1 of 9 (3.79) |
| 17 | G55M+T58S+Y60L | 3.86 3.09 2.98 | 3.31 | 0 of 9 |
| 18 | I34T+S53M | n.d. n.d. n.d. | n.d. | 1 of 9 (3.08) |
| 19 | G33D+G55L+Y60C | n.d. 3.60 3.66 | 3.63 | 1 of 9 (3.65) |
| 20 | V50D+T58M+S107T | n.d. n.d. 4.42 | 4.42 | 0 of 9 |
| 21 | I34W+D62S | n.d. n.d. n.d. | n.d. | 1 of 9 (4.20) |
| 22 | L29Q+A101N+F105R | 5.40 n.d. n.d. | 5.40 | 3 of 9 (3.95) |
| 23 | Y32G+G55E+D62S | 4.46 3.97 4.30 | 4.24 | 8 of 9 (4.41) |
| 24 | N30Y+V50T+G61C | n.d. n.d. n.d. | n.d. | 2 of 9 (3.51) |
| 25 | R100P+T104F | n.d. n.d. n.d. | n.d. | 1 of 9 (4.58) |
| 26 | Y32F+S35A+F105W | n.d. n.d. 5.72 | 5.72 | 3 of 9 (3.77) |
| 27 | S53I+G55S+R57P | n.d. n.d. n.d. | n.d. | 0 of 9 |
| 28 | T28H+S107L | n.d. n.d. n.d. | n.d. | 1 of 9 (3.21) |
| 29 | L29T+T58S+S107Q | n.d. n.d. 3.95 | 3.95 | 3 of 9 (4.31) |
| 30 | S53T+Y60Q+D106R | 6.88 3.56 4.61 | 5.02 | 6 of 9 (5.02) |

Extract of 5 entries:

| changes | replicates, log10 nM | mean log10 Kd (nM) | signal with controls |
|---|---|---|---|
| G33W+G99A+G103E | n.d. n.d. n.d. | n.d. | 1 of 9 (3.79) |
| I34W+D62S | n.d. n.d. n.d. | n.d. | 1 of 9 (4.20) |
| Y32F+S35A+F105W | n.d. n.d. 5.72 | 5.72 | 3 of 9 (3.77) |
| F27K+S31L | 2.69 2.42 2.64 | 2.58 | 6 of 9 (4.12) |
| L29Q+A101N+F105R | 5.40 n.d. n.d. | 5.40 | 3 of 9 (3.95) |